The record followed here is US20240360179A1, “STAPLED PEPTIDES AND METHODS THEREOF” (FOG PHARMACEUTICALS, INC., priority 2021, published 2024).

Chains of the proteins cited; added tags and fusions are not shown.
UniProt P35222, whole entry: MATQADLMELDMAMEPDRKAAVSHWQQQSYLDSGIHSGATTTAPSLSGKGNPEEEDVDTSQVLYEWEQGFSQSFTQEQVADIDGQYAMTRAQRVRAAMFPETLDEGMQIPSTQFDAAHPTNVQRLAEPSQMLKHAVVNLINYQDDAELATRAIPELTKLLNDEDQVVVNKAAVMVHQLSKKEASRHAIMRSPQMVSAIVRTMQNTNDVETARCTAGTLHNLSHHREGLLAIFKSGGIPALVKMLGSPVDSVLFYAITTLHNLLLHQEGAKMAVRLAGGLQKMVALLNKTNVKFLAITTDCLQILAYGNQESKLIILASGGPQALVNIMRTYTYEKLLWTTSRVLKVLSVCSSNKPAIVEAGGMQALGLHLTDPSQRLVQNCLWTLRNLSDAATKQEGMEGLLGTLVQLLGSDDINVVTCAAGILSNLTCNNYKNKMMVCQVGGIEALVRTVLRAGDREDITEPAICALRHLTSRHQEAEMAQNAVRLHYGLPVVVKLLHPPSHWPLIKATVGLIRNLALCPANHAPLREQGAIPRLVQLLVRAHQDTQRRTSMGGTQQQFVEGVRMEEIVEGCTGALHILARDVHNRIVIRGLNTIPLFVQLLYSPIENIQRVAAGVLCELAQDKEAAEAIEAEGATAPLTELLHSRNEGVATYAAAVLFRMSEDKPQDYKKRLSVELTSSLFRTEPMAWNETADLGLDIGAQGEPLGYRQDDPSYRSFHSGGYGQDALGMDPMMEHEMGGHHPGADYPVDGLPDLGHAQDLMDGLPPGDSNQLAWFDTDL

The IC50 is the concentration that gives 50% inhibition.

The experiment has as its target T1, full-length B-Catenin (Uniprot ID P35222) (Homo sapiens, UniProt P35222).
T1 construct: 10 nM full-length B-Catenin (Uniprot ID P35222)
In kind it is binding. To be noted: competition fluorescence polarization; read-out: beta-Catenin FP IC50. (In general: In fluorescence polarisation assays a small probe gives low polarisation when free and higher when bound to something large.)
With “Ac-S5-Glu-Glu-Npg-B5-Asp-3COOHF-Aib-Ala-Phe-Lys*3-PyrS2-3Thi-BztA-GlnR*3-Ala-NH2 [I-1209]”, the IC50 was more than 1000 nM.
The value for “Ac-S5-Ala-Asp-Chg-B5-Asp-3COOHF-Aib-Ala-Phe-Lys*3-PyrS1-Phe-34ClF-GlnR*3-NH2 [I-1627]” was less than 50 nM.
The result for “Ac-PL3-Asp-Ile-B5-Asp-3COOHF-Aib-Ala-Phe-GlnR*3-PyrS2-Phe-34ClF-AsnS3APyr*3-NH2 [I-1423]” reads less than 50 nM.
For the substance “Ac-PL3-Asp-Leu-B5-Asp-3COOHF-GlnPipAz*3-Ala-Phe-Ala-PyrS2-Phe-34ClF-GlnR*3-NH2 [I-1904]”, the IC50 is less than 50 nM.
With “2IAPAc-PL3-Asp-Npg-B5-Asp-3COOHF-Aib-Ala-Phe-Lys*3-PyrS2-3Thi-BztA-GlnR*3-Ala-NH2 [I-1064]”, the half-inhibitory concentration (IC50) was less than 50 nM.
With “Ac-PL3-Asp-Ile-B5-Asp-3COOHF-Aib-Ala-Phe-GlnR*3-PyrS2-Phe-34ClF-GlnR3APyr*3-NH2 [I-1382]”, the IC50 was less than 50 nM.
Take “Cbc-PL3-Asp-Ile-B5-Asp-3COOHF-Aib-Ala-Phe-Lys*3-PyrS2-3Thi-34ClF-GlnR*3-NH2 [I-1588]”: the IC50 is less than 50 nM.
The value for “Ac-S5-Glu-Asn-Npg-B5-Asp-3COOHF-Aib-Ala-Phe-Lys*3-PyrS2-Phe-34ClF-GlnR*3-NH2 [I-1677]” was 200 to 750 nM; that for “Ac-PL3-Asp-DipA-B5-Asp-3COOHF-Leu-Ala-Phe-Lys*3-PyrS2-Phe-BztA-GlnR*3-dPro-NH2 [I-1854]” was less than 50 nM; that for “Ac-PL3-Asp-Ile-B5-Asp-3COOHF-Aib-Ala-Phe-Lys*3-PyrS2-Phe-34ClF-GlnR*3-Ser-Glu-Ala-NH2 [I-1352]” was less than 50 nM.
Take “MeImid4SO2-PL3-Asp-Npg-B5-Asp-3COOHF-Aib-Ala-Phe-Lys*3-PyrS2-3Thi-BztA-GlnR*3-Ala-NH2 [I-1083]”: the IC50 is less than 50 nM.
As for “Ac-PL3-Asp-Npg-B5-Asp-3COOHF-Aib-Ala-Phe-Lys*3-PyrS2-Phe-BztA-GlnR*3-NH2 [I-1242]”, the IC50 is less than 50 nM.
The result for “Ac-PL3-Asp-Ile-B5-Asp-3COOHF-Aib-Ala-Phe-Lys*3-PyrS2-Phe-34ClF-GlnR*3-Ser-Lys-Ala-NH2 [I-1356]” reads less than 50 nM; that for “Ac-PL3-Asp-Ile-B5-Asp-3COOHF-CyLeu-Ala-Phe-Lys*3-PyrS2-Phe-34ClF-GlnR*3-NH2 [I-1052]”, less than 50 nM; that for “Ac-PL3-Asp-Npg-B5-Asp-3COOHF-Aib-Ala-Phe-[m5Pyr]hCys-PyrS2-3Thi-BztA-Pen-Ala-NH2 [I-1470]”, 50 to 200 nM.
The result for “Ac-S5-Glu-Asp-Cha-B5-Asp-3COOHF-Aib-Ala-Phe-Lys*3-PyrS2-Phe-34ClF-GlnR*3-NH2 [I-1619]” reads less than 50 nM; that for “Ac-PL3-Asp-Ile-B5-Asp-3COOHF-Ala-Ala-Phe-TriAzLys*3-PyrS2-Phe-34ClF-sAla*3-NH2 [I-1863]”, less than 50 nM; that for “Ac-PL3-Asp-Npg-B5-Asp-3COOHF-CyLeu-Ser-Phe-Lys*3-PyrS2-3Thi-BztA-GlnR*3-Ala-NH2 [I-1011]”, less than 50 nM.
As for “Ac-PL3-Asp-Npg-B5-Asp-3COOHF-Aib-Ala-Phe-Lys*3-PyrS2-CypA-2NapA-GlnR*3-Ala-NH2 [I-492]”, the IC50 was in the range of 50 to 200 nM.
The value for “NPyroR3-Asp-Chg-B5-Asp-3COOHF-Aib-Ala-Phe-Lys*3-PyrS2-3Thi-34ClF-GlnR*3-NH2 [I-1554]” was less than 50 nM.
The value for “Ac-PL3-Asp-Npg-B5-Asp-3COOHF-Aib-Ala-Phe-Lys*3-PyrS2-3Thi-BztA-GlnR*3-Val-Ser-Thr-Pro-NH2 [I-1482]” was less than 50 nM; that for “Ac-PL3-Asp-Npg-B5-Asp-3COOHF-Aib-Ala-Phe-Lys*3-PyrS2-Phe-7MeBztA-GlnR*3-NH2 [I-1250]” was less than 50 nM.
The value for “Ac-PL3-Asp-Ile-B5-Asp-3COOHF-Aib-Ala-Phe-Lys*3-PyrS2-Phe-34ClF-GlnR*3-Val-Glu-Ala-NH2 [I-1252]” was less than 50 nM.
Regarding “Ac-PL3-Asp-Leu-B5-Asp-3COOHF-GlnR*3-Ala-Phe-Ala-PyrS2-Phe-34ClF-Gln5DA*3-NH2 [I-1831]”, the IC50 is less than 50 nM.
In the case of “Ac-PL3-Asp-Ile-B5-Asp-3COOHF-Aib-Ala-Phe-Lys*3-PyrS2-3Thi-34ClF-GlnR*3-Val-Glu-Leu-NH2 [I-1264]”, the IC50 was less than 50 nM.
The value for “Ac-Pro-S5-Ala-Asp-Val-B5-Asp-3COOHF-Aib-Ala-Phe-Lys*3-PyrS1-Phe-34ClF-GlnR*3-NH2 [I-1889]” was less than 50 nM.
As for “Ac-PL3-Asp-Leu-B5-Asp-3COOHF-Aib-Ala-Phe-Lys*3-PyrS2-6ClW-34ClF-GlnR*3-Ala-NH2 [I-1911]”, the IC50 lay in the range of 200 to 750 nM.
The value for “Ac-PL3-Asp-Npg-B5-Asp-3COOHF-Aib-Ala-Phe-TriAzLys*3-[CO][dVal]PyrSa-3Thi-BztA-sAla*3-Ala-NH2 [I-1442]” was less than 50 nM.
The result for “Ac-PL3-Asp-Npg-B5-Asp-3COOHF-Aib-Ala-Phe-Lys*3-PyrS2-[Me2NAc]2NH2F-BztA-GlnR*3-Ala-NH2 [I-1747]” reads less than 50 nM.
The result for “Ac-PL3-Asp-Ile-B5-Asp-3COOHF-Aib-Ala-Phe-Lys*3-PyrS2-hCbA-BztA-GlnR*3-Ala-NH2 [I-1323]” reads less than 50 nM.
For “Ac-PL3-Asp-Leu-B5-Asp-3COOHF-GlnPipAz*3-Ala-Phe-Leu-PyrS2-Phe-34ClF-GlnR*3-NH2 [I-1903]”, the IC50 is less than 50 nM.
As for “3PydCO-PL3-Asp-Npg-B5-Asp-3COOHF-Aib-Ala-Phe-Lys*3-PyrS2-3Thi-BztA-GlnR*3-Ala-NH2 [I-907]”, the IC50 is less than 50 nM.
The result for “Ac-PL3-aThr-DipA-B5-Asp-3COOHF-nLeu-Ala-3Thi-Lys*3-PyrS2-3Thi-BztA-GlnR*3-NH2 [I-1687]” reads 200 to 750 nM.
The result for “Ac-PL3-Asp-Leu-B5-Asp-3COOHF-GlnR*3-Ala-Phe-Leu-PyrS2-Phe-34ClF-GlnPip4AE*3-NH2 [I-1924]” reads less than 50 nM; that for “Ac-PL3-Asp-Npg-B5-Asp-3COOHF-Aib-Ala-Phe-Lys*3-PyrS2-DipA-BztA-GlnR*3-NH2 [I-1536]”, 50 to 200 nM; that for “Ac-PL3-Asp-Npg-B5-Asp-3COOHF-Aib-Ala-Phe-Lys*3-PyrS2-3Thi-BztA-GlnR*3-Val-Ser-Thr-NH2 [I-1481]”, less than 50 nM.
In the case of “5PymAc-PL3-Asp-Npg-B5-Asp-3COOHF-Aib-Ala-Phe-Lys*3-PyrS2-3Thi-BztA-GlnR*3-Ala-NH2 [I-1073]”, the IC50 was less than 50 nM.
The result for “Ac-PL3-Asp-Ile-B5-Asp-3COOHF-Aib-Ala-Phe-Lys*3-PyrS2-Phe-34ClF-GlnR*3-Ser-Lys-Leu-NH2 [I-1362]” reads less than 50 nM.
The value for “Ac-PL3-Asp-Leu-B5-Asp-Asp-dLys*3-Ala-Phe-GlnR*3-PyrS2-3Thi-BztA-Gln-NH2 [I-608]” was less than 50 nM; that for “Ac-PL3-Asp-Chg-B5-Asp-3COOHF-Val-Ala-Phe-Lys*3-PyrS2-3Thi-BztA-GlnR*3-Ala-NH2 [I-978]” was less than 50 nM; that for “Ac-PL3-Asp-Leu-B5-Asp-3COOHF-Ala-Ala-Phe-Lys*3-PyrS2-2MeF-34ClF-GlnR*3-NH2 [I-1513]” was 200 to 750 nM.
The value for “Ac-PL3-Gln-Npg-B5-Asp-3COOHF-Aib-Ala-Phe-Lys*3-PyrS2-3Thi-BztA-GlnR*3-Ala-NH2 [I-930]” was 200 to 750 nM; that for “Ac-PL3-Asp-Leu-B5-Asp-3COOHF-GlnR*3-Ala-Phe-Leu-PyrS2-Phe-34ClF-GlnMeBDA*3-NH2 [I-1827]” was less than 50 nM.
For “Ac-PL3-Asp-DipA-B5-Asp-3COOHF-Ala-Ala-Phe-Lys*3-PyrS2-Phe-BztA-GlnR*3-NH2 [I-1841]”, the IC50 is less than 50 nM.
The result for “Ac-PL3-Asp-DipA-B5-Asp-3COOHF-Ala-Ala-Phe-Lys*3-PyrS2-3Thi-34ClF-GlnR*3-Ser-NH2 [I-1113]” reads less than 50 nM.
The value for “NPyroR3-Asp-Ala-B4-Asp-3COOHF-Aib-Ala-Phe-Lys*3-PyrS3-3Thi-BztA-GlnR*3-Ala-NH2 [I-1492]” was 50 to 200 nM.
“Ac-S5-Pro-Asp-Chg-B5-Asp-3COOHF-Aib-Ala-Phe-Lys*3-PyrS2-Phe-34ClF-GlnR*3-NH2 [I-1621]”: the IC50 is less than 50 nM.
For “Ac-S5-Val-Asp-Ile-B5-Asp-3COOHF-Aib-Ala-Phe-Lys*3-PyrS2-Phe-34ClF-GlnR*3-NH2 [I-1343]”, the IC50 was in the range of 50 to 200 nM.
The value for “Ac-PL3-Asp-Leu-B5-Asp-3COOHF-GlnR*3-Ala-Phe-Ala-PyrS2-Phe-34ClF-GlnPip4AE*3-NH2 [I-1926]” was less than 50 nM; that for “Ac-PL3-Asp-DipA-B5-Asn-3COOHF-CyLeu-Ala-Phe-Lys*3-PyrS2-3Thi-34ClF-GlnR*3-NH2 [I-1632]” was less than 50 nM; that for “Ac-S5-Ala-Asp-Ile-B5-Asp-4COOHF-Aib-Ala-Phe-Lys*3-PyrS2-Phe-34ClF-GlnR*3-NH2 [I-1336]” was 50 to 200 nM.
“Ac-PL3-Asp-Leu-B5-Asp-3COOHF-GlnC4CyMe*3-Ala-Phe-Ala-PyrS2-Phe-34ClF-GlnR*3-NH2 [I-1897]”: the IC50 is less than 50 nM.
The result for “Ac-PL3-Asp-Npg-B5-Asp-3COOHF-Ala-Ala-Phe-Lys*3-SPip2-2F3MeF-BztA-GlnR*3-Ala-NH2 [I-777]” reads 50 to 200 nM; that for “Ac-PL3-Asp-Ile-B5-Asp-3COOHF-Dpg-Ala-Phe-Lys*3-PyrS2-3Thi-BztA-GlnR*3-Ala-NH2 [I-975]”, less than 50 nM; that for “Ac-PL3-Asp-Npg-B5-Asp-TfeGA-Aib-Ala-Phe-Lys*3-PyrS2-3Thi-BztA-GlnR*3-Ala-NH2 [I-876]”, less than 50 nM.
The result for “Ac-PL3-Asp-Npg-B5-Asp-3COOHF-Aib-Ala-Phe-Lys*3-PyrS2-hnLeu-3BrF-GlnR*3-Ala-NH2 [I-765]” reads 50 to 200 nM.
The value for “Ac-S5-Asp-Asp-Npg-B5-Asp-3COOHF-Aib-Ala-Phe-Lys*3-PyrS2-Phe-34ClF-GlnR*3-NH2 [I-1673]” was less than 50 nM; that for “Ac-PL3-Asp-Npg-B5-Asp-3COOHF-Aib-Ala-Phe-Lys*3-PyrS2-hCha-BztA-GlnR*3-Ala-NH2 [I-1319]” was 50 to 200 nM.
As to “Ac-PL3-Asp-Npg-B5-Asp-3COOHF-Aib-Ala-Phe-Lys*3-PyrS2-hCbA-BztA-GlnR*3-Ala-NH2 [I-1317]”, the IC50 was less than 50 nM.
The result for “Ac-PL3-Asp-Leu-B5-Asp-3COOHF-CyLeu-Ala-Phe-Lys*3-PyrS2-2MeF-34ClF-GlnR*3-NH2 [I-1514]” reads 200 to 750 nM.
